From PubChem BioAssay (NCI) come the findings set out here.

Only a part is listed here, and it is no random draw. Calls of active or inactive are those of the source. Rule as the data show it: active = growth inhibition above about 70%; inactive = the rest.

Test [1] can be described thus: NCI Yeast Anticancer Drug Screen. Data for the rad50 strain (AID 155).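 Also: 0% = growth of vehicle-only cultures of the same strain.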 The settings on record: S. cerevisiae rad50 strain growth inhibition; at 50.0 µM; active compounds read high.
Test [2] in a line: NCI Yeast Anticancer Drug Screen. Data for the mec2-1 strain (AID 157). The settings on record: S. cerevisiae mec2-1 strain, at 50.0 µM, active compounds read high.
Test [3] is described as follows: NCI Yeast Anticancer Drug Screen. Data for the sgs1 mgt1 strain (AID 161).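 Also: 0% = growth of cultures given vehicle only.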 The note with it: S. cerevisiae sgs1 mgt1 strain, at 50.0 µM, active compounds read high.
Test [4] in a line: NCI Yeast Anticancer Drug Screen. Data for the cln2 rad14 strain (AID 165).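 Also: 0% = growth equal to vehicle treated cultures.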 The settings on record: S. cerevisiae cln2 rad14 strain, at 50.0 µM, active compounds read high.
Test [5] is described as follows: NCI Yeast Anticancer Drug Screen. Data for the bub3 strain (AID 167). The settings on record: S. cerevisiae bub3 mutant strain, at 50.0 µM, active compounds read high.
A short description of test [6]: NCI Yeast Anticancer Drug Screen. Data for the mlh1 rad18 strain (AID 175). The note with it: S. cerevisiae mlh1 rad18 strain growth inhibition; at 50.0 µM; active compounds read high.

Turning to `CN(C)c1ccccc1.O=[N+]([O-])c1cc([N+](=O)[O-])c(O)c([N+](=O)[O-])c1`, the growth inhibition was inactive: 15% in test [1]; inactive: 3% in test [2]; inactive: 23.2% in test [3]; inactive: 3.35% in test [4]; inactive: 7.5% in test [5]; inactive: 29.6% in test [6].
As to `CC1=CC2OC3CC4OC(=O)/C=C/C=C/C(=O)OCCC(C)C(O)C(=O)OCC2(CC1=O)C4(C)C31CO1` (configuration not stated), the growth inhibition in test [1] was active: 92.5%; in test [2], active: 93.3%; in test [3], active: 93.2%; in test [4] it was active: 91.2%; in test [5], active: 92%; in test [6] it was active: 92.3%.
In the case of `CCC1C(=O)CCN1C.O=[N+]([O-])c1cc([N+](=O)[O-])c(O)c([N+](=O)[O-])c1`, the growth inhibition in test [1] was inactive: -2.8%; in test [2], inactive: 3.65%; in test [3], inactive: 24.3%; in test [4], inactive: -2.7%; in test [5] it was inactive: 11.6%; in test [6] it was inactive: -7.2%.
`Cc1ccc(Nc2c([N+](=O)[O-])cc([N+](=O)[O-])cc2[N+](=O)[O-])c(C)c1`: the growth inhibition in test [1] was active: 94.6%; in test [2], active: 96.2%; in test [3], active: 96.3%; in test [4] it was active: 90.4%; in test [5], active: 95.4%; in test [6] it was active: 95.5%.
In the case of `CP(=S)(Nc1ccccc1)Nc1ccccc1`, the growth inhibition in test [1] was inactive: 12.8%; in test [2], inactive: 1.4%; in test [3] it was inactive: 1.2%; in test [4], inactive: 14.4%; in test [5], inactive: 1.2%; in test [6], inactive: -0.4%.
In the case of `O=[N+]([O-])c1cc([N+](=O)[O-])c(F)c([N+](=O)[O-])c1`, the growth inhibition was inactive: -15.2% in test [1], inactive: -18.8% in test [2] and inactive: -24.3% in test [6].
`C1CN1.Cc1c[nH]c(=O)[nH]c1=O.NC(CC(=O)O)C(=O)O`: the growth inhibition in test [1] is inactive: -5.05%; in test [2] it was inactive: -4.4%; in test [4], inactive: 3.8%; in test [5], inactive: 1.8%; in test [6], inactive: 16.1%.
Take `NCc1ccccc1.O=[N+]([O-])c1cc([N+](=O)[O-])c(O)c([N+](=O)[O-])c1`: the growth inhibition is inactive: -2.95% in test [1]; inactive: -13.6% in test [2]; inactive: -3.2% in test [3]; inactive: -54.7% in test [4]; inactive: 4.5% in test [5]; inactive: -6.7% in test [6].
As for `COC(=O)C(C)(C)C(OP(C)(=O)OC)=C(C)C` (configuration not stated), the growth inhibition in test [1] is inactive: -4.8%; in test [2] it was inactive: 0.65%; in test [3], inactive: -0.35%; in test [4], inactive: 24.4%; in test [5], inactive: 13.1%; in test [6], inactive: 11.1%.
As for `CCCCCCC(C)NCCCO.O=[N+]([O-])c1cc([N+](=O)[O-])c(O)c([N+](=O)[O-])c1`, the growth inhibition was inactive: 34.6% in test [1]; inactive: 0.75% in test [2]; inactive: 31% in test [3]; inactive: -22.9% in test [4]; inactive: 7.25% in test [5]; inactive: 19.4% in test [6].
As to `CCC1CCCCN1.O=[N+]([O-])c1cc([N+](=O)[O-])c(O)c([N+](=O)[O-])c1`, the growth inhibition in test [1] is inactive: -5.7%; in test [2] it was inactive: -0.75%; in test [3] it was inactive: 8.1%; in test [4], inactive: -12.7%; in test [5] it was inactive: 22.6%; in test [6], inactive: 21.8%.
With `Cc1cccc2cc3c(ccc4ccccc43)cc12.O=C1c2cc([N+](=O)[O-])ccc2-c2c1cc([N+](=O)[O-])cc2[N+](=O)[O-]`, the growth inhibition was inactive: -4% in test [1]; inactive: 8.3% in test [2]; inactive: 9.15% in test [3]; inactive: -10.5% in test [4]; inactive: 21.9% in test [6].
As for `CC1CN(C)CC1C.O=[N+]([O-])c1cc([N+](=O)[O-])c(O)c([N+](=O)[O-])c1`, the growth inhibition is inactive: 11.5% in test [1]; inactive: 3.8% in test [2]; inactive: 4.8% in test [3]; inactive: 2.15% in test [4]; inactive: 34.2% in test [5]; inactive: 12.8% in test [6].
As for `CC(O)CNC(C)C.O=[N+]([O-])c1cc([N+](=O)[O-])c(O)c([N+](=O)[O-])c1`, the growth inhibition in test [1] was inactive: 5.9%; in test [2], inactive: 4.5%; in test [4], inactive: -39.2%; in test [5], inactive: -12.6%; in test [6], inactive: 2.95%.
In the case of `C1CN1.CC(N)C(=O)O.Cc1c[nH]c(=O)[nH]c1=O`, the growth inhibition is inactive: 21% in test [1]; inactive: -5.5% in test [2]; inactive: 21.3% in test [4]; inactive: 26.9% in test [5]; inactive: 13.5% in test [6].
For `O=[N+]([O-])c1cc([N+](=O)[O-])c(O)c([N+](=O)[O-])c1.OCCc1ccncc1`, the growth inhibition was inactive: 13.2% in test [1]; inactive: 0.7% in test [2]; inactive: 8.45% in test [3]; inactive: -7.45% in test [4]; inactive: 17.9% in test [5]; inactive: 5.35% in test [6].
For `CCSP(N)(=O)CC` (configuration not stated), the growth inhibition in test [1] is inactive: 6.8%; in test [2], inactive: 32.6%; in test [3] it was inactive: 0.8%; in test [4], inactive: -13.8%; in test [5], inactive: -29.6%; in test [6] it was inactive: 16.7%.
With `O=[N+]([O-])c1nc(-c2nc([N+](=O)[O-])c([N+](=O)[O-])[nH]2)[nH]c1[N+](=O)[O-]`, the growth inhibition in test [1] was inactive: 20.2%; in test [2] it was inactive: 4.55%; in test [3], inactive: 24.4%; in test [4], inactive: 4.3%; in test [5] it was inactive: 11.8%; in test [6] it was inactive: 22.6%.
Regarding `Cc1ccccn1.O=[N+]([O-])c1cc([N+](=O)[O-])c(O)c([N+](=O)[O-])c1`, the growth inhibition was inactive: -0.9% in test [1]; inactive: 36.2% in test [2]; inactive: 5.55% in test [3]; inactive: -8.65% in test [4]; inactive: 8.6% in test [5]; inactive: -6.7% in test [6].
